AlphaSeq binding of Ab-95 light chain variants to a spike HR2 peptide

From the AlphaSeq antibody data of Engelhart et al. 2022 (doi:10.1038/s41597-022-01779-4), copy in the FLAb collection.

Antigen: PDVDLGDISGINAS, a 14-residue peptide of the SARS-CoV-2 spike HR2 region.

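The parent was found by panning a naive human phage display library on the peptide. AAYL52 was designed without a model: most single CDR substitutions and a random sample of double and triple ones. The assay is AlphaSeq: two haploid yeast populations carry antibody and antigen on their surface. The frequency of each diploid, read from paired DNA barcodes, reflects how well the two displayed proteins bind. Scores were corrected for input abundance and mapped to Kd with protein pairs of known affinity run in the same pool. Each pool was mated in three replicate cultures.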

Each scFv is VH, the linker GGGGSGGGGSGGGGS, VL, as in the parent Ab-95, and differs from it in the CDRs of the light chain only.
VH: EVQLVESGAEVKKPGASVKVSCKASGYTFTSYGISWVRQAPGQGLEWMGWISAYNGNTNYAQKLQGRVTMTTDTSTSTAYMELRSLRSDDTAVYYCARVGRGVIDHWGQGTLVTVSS
VL: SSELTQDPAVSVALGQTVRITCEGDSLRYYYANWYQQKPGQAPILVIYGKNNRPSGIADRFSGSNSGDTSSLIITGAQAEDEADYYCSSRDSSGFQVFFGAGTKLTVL

The parent's light chain CDRs are EGDSLRYYYAN, GKNNRPS, SSRDSSGFQVF; each variant's own CDRs replace them letter for letter. Numbers give log10(Kd / nM), so 0 is 1 nM and 3 is 1 µM. Smaller is tighter. "n.d." means that the variant was in the library but no mating with the target was seen in that replicate; the authors take this as a sign of poor binding, and no number exists. Empty control strains, which show no peptide, gave a signal in 28% of pairings with library AAYL52; the median was 3.91 and 95% of these signals were weaker than 2.90. No background was subtracted. For each scFv, signals with the empty controls are counted beside the result, with their mean in brackets. For reference, the parent read 2.31 as the reference entry and 2.25 as a member of this library.

{"CDR-L1": "EGDYLRYYYAN", "CDR-L2": "MKNNHPS", "CDR-L3": "SSRDSSGFQVF", "log10 Kd, replicates": "4.26 / 5.33 / n.d.", "control signals": "2 of 9 (3.78)"}
{"CDR-L1": "EGDSLRYQYAN", "CDR-L2": "GGNNRPS", "CDR-L3": "LSRDSSGFQVF", "log10 Kd, replicates": "1.95 / 1.89 / 1.27", "control signals": "2 of 9 (4.78)"}
{"CDR-L1": "EGDSLRYQYAN", "CDR-L2": "GKNNAPS", "CDR-L3": "SSRDSSGFKVF", "log10 Kd, replicates": "1.00 / 0.86 / 0.40", "control signals": "2 of 9 (3.52)"}
{"CDR-L1": "EGDSQRYYYIN", "CDR-L2": "KKNNRPS", "CDR-L3": "SSRDSSGFQVF", "log10 Kd, replicates": "3.40 / n.d. / n.d.", "control signals": "4 of 9 (3.94)"}
{"CDR-L1": "EGDSLRYYYAQ", "CDR-L2": "GKNNRQS", "CDR-L3": "SSRDTSGFQVF", "log10 Kd, replicates": "n.d. / n.d. / n.d.", "control signals": "2 of 9 (4.33)"}
{"CDR-L1": "EGDSLRYYYAQ", "CDR-L2": "GKNNRPS", "CDR-L3": "SSRRSVGFQVF", "log10 Kd, replicates": "5.20 / 2.64 / 3.51", "control signals": "4 of 9 (3.99)"}
{"CDR-L1": "EGDSLRYYYAN", "CDR-L2": "GKNNRPS", "CDR-L3": "TSRDSTGKQVF", "log10 Kd, replicates": "3.14 / 3.26 / 1.92", "control signals": "1 of 9 (2.40)"}
{"CDR-L1": "EGDSLRYYYAN", "CDR-L2": "GKNNRPS", "CDR-L3": "YSRDISGFQVF", "log10 Kd, replicates": "n.d. / n.d. / 4.44", "control signals": "1 of 9 (4.39)"}
{"CDR-L1": "EGDSSRYYQAN", "CDR-L2": "GKNNRPS", "CDR-L3": "SARDSSGFQVF", "log10 Kd, replicates": "2.87 / 3.02 / 2.58", "control signals": "2 of 9 (4.29)"}
{"CDR-L1": "EGDSLRYYYAN", "CDR-L2": "GKFNRPS", "CDR-L3": "SSMRSSGFQVF", "log10 Kd, replicates": "3.63 / 3.53 / n.d.", "control signals": "4 of 9 (4.44)"}
{"CDR-L1": "EGDSLRYYYAN", "CDR-L2": "GKNNCPS", "CDR-L3": "ASRDSSGAQVF", "log10 Kd, replicates": "3.35 / 2.89 / 3.71", "control signals": "1 of 9 (4.11)"}
{"CDR-L1": "EGDSCRYYYRN", "CDR-L2": "GKNNRPS", "CDR-L3": "SSRDSLGFQVF", "log10 Kd, replicates": "n.d. / n.d. / n.d.", "control signals": "3 of 9 (3.07)"}
{"CDR-L1": "EGDSWRYYYAE", "CDR-L2": "GKNNRPS", "CDR-L3": "SSRDSSRFQVF", "log10 Kd, replicates": "n.d. / n.d. / n.d.", "control signals": "1 of 9 (3.95)"}
{"CDR-L1": "EGDSLRYYRAN", "CDR-L2": "GKNNLPS", "CDR-L3": "SSRDSSGFQQF", "log10 Kd, replicates": "n.d. / n.d. / 3.30", "control signals": "4 of 9 (3.30)"}
{"CDR-L1": "FGDSLRYYYAN", "CDR-L2": "GKNNRPS", "CDR-L3": "SSRDSSGFQCF", "log10 Kd, replicates": "4.08 / 3.92 / 4.23", "control signals": "5 of 9 (3.93)"}
{"CDR-L1": "EGDGIRYYYAN", "CDR-L2": "GKNNCPS", "CDR-L3": "SSRDSSGFQVF", "log10 Kd, replicates": "3.78 / n.d. / 4.66", "control signals": "4 of 9 (4.05)"}
{"CDR-L1": "EGDSLRYYYAN", "CDR-L2": "GKNNLPS", "CDR-L3": "SSRHSSRFQVF", "log10 Kd, replicates": "n.d. / 3.28 / 3.91", "control signals": "1 of 9 (3.20)"}
{"CDR-L1": "EGDCLRYYYAN", "CDR-L2": "GKNNRPL", "CDR-L3": "SSRDSSGDQVF", "log10 Kd, replicates": "n.d. / 4.75 / n.d.", "control signals": "3 of 9 (2.83)"}
{"CDR-L1": "EGMSLRYYYAN", "CDR-L2": "GKNNRPS", "CDR-L3": "SSRDSSGFQQF", "log10 Kd, replicates": "3.15 / 3.11 / 2.57", "control signals": "3 of 9 (3.60)"}
{"CDR-L1": "EGDSLRYHYAN", "CDR-L2": "GKNNRPS", "CDR-L3": "SSRDSSWFQVF", "log10 Kd, replicates": "1.54 / 0.94 / 0.79", "control signals": "4 of 9 (3.69)"}
{"CDR-L1": "EGDSLRYLYAN", "CDR-L2": "GKNNRPS", "CDR-L3": "SSRMSSGVQVF", "log10 Kd, replicates": "5.50 / 3.28 / 4.28", "control signals": "0 of 9"}
{"CDR-L1": "EGDSLRDYYAN", "CDR-L2": "GKNNRHS", "CDR-L3": "SSRDSSGQQVF", "log10 Kd, replicates": "3.64 / 3.03 / 2.56", "control signals": "3 of 9 (3.88)"}
{"CDR-L1": "KGDSLRYYYAN", "CDR-L2": "GKNNRPS", "CDR-L3": "SSRDSSKFQVG", "log10 Kd, replicates": "2.61 / 3.83 / 3.05", "control signals": "4 of 9 (3.92)"}
{"CDR-L1": "EGDSLRYYYAN", "CDR-L2": "GKSNRPS", "CDR-L3": "SSRDSPGFGVF", "log10 Kd, replicates": "2.87 / 2.98 / 2.45", "control signals": "0 of 9"}
{"CDR-L1": "EGDSLRYMYAN", "CDR-L2": "GKNNRPS", "CDR-L3": "SSRDSFGPQVF", "log10 Kd, replicates": "4.17 / 3.39 / n.d.", "control signals": "2 of 9 (3.78)"}
{"CDR-L1": "EGDSLRYYEAN", "CDR-L2": "GKNNRPS", "CDR-L3": "NSRDSSGFQKF", "log10 Kd, replicates": "1.61 / 1.45 / 1.59", "control signals": "1 of 9 (4.01)"}

Again, the first 3 entries without any signal:

CDR-L1,CDR-L2,CDR-L3,"log10 Kd, replicates",control signals
EGDSLRYYYAQ,GKNNRQS,SSRDTSGFQVF,n.d. / n.d. / n.d.,2 of 9 (4.33)
EGDSCRYYYRN,GKNNRPS,SSRDSLGFQVF,n.d. / n.d. / n.d.,3 of 9 (3.07)
EGDSWRYYYAE,GKNNRPS,SSRDSSRFQVF,n.d. / n.d. / n.d.,1 of 9 (3.95)